Values of other authors as cited in PMC12711161 (2025).

Molecular target: T1, COX‐2 (Mus musculus, UniProt Q05769)
T1 sequence (Q05769 18-604): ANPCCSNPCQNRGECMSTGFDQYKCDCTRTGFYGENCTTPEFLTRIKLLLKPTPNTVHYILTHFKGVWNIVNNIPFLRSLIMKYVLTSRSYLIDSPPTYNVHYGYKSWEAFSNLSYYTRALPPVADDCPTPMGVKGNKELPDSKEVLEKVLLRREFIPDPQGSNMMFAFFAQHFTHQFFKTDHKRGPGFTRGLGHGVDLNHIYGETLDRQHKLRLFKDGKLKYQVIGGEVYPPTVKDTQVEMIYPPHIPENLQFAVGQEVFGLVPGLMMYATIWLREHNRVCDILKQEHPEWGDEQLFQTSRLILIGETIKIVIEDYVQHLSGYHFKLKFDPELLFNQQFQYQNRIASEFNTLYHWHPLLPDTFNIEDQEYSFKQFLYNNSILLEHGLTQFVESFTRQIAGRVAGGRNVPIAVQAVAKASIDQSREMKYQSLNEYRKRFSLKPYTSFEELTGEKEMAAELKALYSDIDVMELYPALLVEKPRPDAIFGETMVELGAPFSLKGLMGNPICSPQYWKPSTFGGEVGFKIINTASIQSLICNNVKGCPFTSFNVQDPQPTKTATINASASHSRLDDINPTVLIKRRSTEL
Details: read-out: COX‐2 IC50; J774 murine macrophage assay; ref [27]; cited from earlier work

SMILES: Cc1c(CCOCCO)cc(-c2ccc(S(C)(=O)=O)cc2)n1-c1ccc(F)cc1 [Compound 7b]
- IC50: 4 nM
